{"source": "PubChem BioAssay AID601", "about": "(SRMLSC, 2007)", "note": "The entries are a selection whose mix differs from that of the whole data set. Some of these compounds have results that are not shown, active ones among them. The source made the active and inactive calls.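 How the source made its calls: active means viability loss from added drug above about 55%, and viability with drug at most 40%, in both replicates (limit read from the data, passing the limit was not always enough); inconclusive means both conditions met in only one replicate; inactive means neither replicate meets both conditions.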", "data": [{"assay": "reversal of MRP1-mediated doxorubicin resistance, pilot screen, H69AR cells, doxorubicin co-treatment (AID 601)", "conditions": "H69AR cells + 2 uM doxorubicin, CellTiter-Glo, 72 h; at 10 µM; hits give high values", "values": [{"smiles": "O=C(OC1CN2CCC1CC2)C(CO)(c1ccccc1)c1ccccc1", "note": "(stereo unspecified)", "differential viability (reversal)": "inactive: 10.8%"}]}]}
